Here are results for 18 molecules from US10030004B2, “Compounds and methods of use” (Medivation Technologies LLC, priority 2014, dated 2018).

The chains behind the UniProt entries cited, without tags or fusion partners. Residues count along the entry.
UniProt P37023, 22-503: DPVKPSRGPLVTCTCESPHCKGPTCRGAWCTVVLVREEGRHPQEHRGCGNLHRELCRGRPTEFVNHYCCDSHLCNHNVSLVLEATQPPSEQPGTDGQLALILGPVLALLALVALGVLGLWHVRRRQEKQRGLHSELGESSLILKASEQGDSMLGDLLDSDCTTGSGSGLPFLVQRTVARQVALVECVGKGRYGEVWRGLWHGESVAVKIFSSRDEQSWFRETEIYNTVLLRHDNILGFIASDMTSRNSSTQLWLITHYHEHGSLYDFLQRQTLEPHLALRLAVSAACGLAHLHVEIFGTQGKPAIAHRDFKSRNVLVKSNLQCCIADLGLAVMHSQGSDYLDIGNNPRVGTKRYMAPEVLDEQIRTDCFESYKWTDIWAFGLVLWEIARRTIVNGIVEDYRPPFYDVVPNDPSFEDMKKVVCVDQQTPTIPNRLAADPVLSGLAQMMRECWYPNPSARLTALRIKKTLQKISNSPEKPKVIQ
UniProt P36897, 34-503: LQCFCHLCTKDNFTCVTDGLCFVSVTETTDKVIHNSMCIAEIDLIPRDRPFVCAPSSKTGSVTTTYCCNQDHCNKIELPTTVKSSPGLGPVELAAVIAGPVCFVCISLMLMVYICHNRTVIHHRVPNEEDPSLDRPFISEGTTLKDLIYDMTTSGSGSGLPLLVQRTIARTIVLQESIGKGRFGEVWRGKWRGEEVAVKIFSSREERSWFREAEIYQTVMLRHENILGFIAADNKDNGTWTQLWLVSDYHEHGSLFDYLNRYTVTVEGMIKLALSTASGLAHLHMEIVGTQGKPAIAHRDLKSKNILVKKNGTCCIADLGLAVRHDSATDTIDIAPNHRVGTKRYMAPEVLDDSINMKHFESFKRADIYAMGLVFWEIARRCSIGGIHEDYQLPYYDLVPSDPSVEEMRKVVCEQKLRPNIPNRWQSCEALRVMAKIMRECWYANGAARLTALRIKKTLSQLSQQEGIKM
UniProt O00238, 14-502: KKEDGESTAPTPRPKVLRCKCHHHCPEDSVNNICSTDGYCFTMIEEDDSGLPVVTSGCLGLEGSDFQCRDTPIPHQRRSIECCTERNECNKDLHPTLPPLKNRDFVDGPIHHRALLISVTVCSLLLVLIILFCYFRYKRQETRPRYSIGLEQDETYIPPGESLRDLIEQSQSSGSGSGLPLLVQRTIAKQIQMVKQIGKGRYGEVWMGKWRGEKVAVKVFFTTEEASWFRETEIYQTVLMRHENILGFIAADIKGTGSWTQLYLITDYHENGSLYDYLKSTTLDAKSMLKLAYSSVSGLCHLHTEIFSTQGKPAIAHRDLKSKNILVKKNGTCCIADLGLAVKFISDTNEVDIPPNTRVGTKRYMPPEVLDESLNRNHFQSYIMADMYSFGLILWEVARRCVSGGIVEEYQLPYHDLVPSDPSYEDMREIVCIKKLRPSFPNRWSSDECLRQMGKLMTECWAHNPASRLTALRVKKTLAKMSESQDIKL
UniProt P36896, 24-505: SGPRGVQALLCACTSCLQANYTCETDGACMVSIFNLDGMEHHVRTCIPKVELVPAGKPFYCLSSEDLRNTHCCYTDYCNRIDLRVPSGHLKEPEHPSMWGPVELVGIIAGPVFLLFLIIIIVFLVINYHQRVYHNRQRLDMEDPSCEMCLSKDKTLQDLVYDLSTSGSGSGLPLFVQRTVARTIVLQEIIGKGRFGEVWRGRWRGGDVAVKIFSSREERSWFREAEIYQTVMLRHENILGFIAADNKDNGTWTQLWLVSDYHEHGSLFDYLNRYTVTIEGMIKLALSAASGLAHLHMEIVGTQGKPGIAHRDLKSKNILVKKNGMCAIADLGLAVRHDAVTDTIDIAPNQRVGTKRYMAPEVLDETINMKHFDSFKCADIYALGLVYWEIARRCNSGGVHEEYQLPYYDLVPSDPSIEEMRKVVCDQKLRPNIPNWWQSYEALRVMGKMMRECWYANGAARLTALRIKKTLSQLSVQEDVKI
UniProt Q04771, 21-509: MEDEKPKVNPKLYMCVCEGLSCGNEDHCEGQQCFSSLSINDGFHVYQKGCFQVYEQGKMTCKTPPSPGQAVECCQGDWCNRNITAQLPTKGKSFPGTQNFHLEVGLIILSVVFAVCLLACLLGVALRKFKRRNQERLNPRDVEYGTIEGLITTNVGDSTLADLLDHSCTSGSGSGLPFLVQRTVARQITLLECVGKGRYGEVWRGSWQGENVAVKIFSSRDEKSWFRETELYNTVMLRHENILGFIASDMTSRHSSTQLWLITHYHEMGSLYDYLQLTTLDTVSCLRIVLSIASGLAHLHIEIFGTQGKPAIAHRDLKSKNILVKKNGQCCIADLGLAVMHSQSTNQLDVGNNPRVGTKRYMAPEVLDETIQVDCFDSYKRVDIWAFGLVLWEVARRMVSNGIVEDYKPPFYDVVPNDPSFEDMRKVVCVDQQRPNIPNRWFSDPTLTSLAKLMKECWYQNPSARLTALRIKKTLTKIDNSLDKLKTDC
UniProt P36894, 24-532: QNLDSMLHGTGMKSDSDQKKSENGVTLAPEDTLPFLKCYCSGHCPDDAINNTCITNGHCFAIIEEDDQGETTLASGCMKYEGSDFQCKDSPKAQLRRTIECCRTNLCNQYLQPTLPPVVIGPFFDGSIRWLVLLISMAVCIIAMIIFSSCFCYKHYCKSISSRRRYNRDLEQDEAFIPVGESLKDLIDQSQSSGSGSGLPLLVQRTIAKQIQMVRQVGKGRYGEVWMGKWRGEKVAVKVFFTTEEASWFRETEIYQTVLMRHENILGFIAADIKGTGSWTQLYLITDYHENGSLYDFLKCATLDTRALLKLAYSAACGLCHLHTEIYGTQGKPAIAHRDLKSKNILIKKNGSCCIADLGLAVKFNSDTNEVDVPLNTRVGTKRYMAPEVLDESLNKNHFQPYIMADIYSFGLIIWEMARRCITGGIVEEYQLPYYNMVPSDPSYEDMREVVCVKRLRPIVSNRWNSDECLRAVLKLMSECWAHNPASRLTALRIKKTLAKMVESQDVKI

Like-named read-outs stand apart in the source and are kept apart here.

The subject of assay [1] is p-SMAD2. Put plainly: p-SMAD2 inhibition, Western Blot Analysis in TGFβ-stimulated MDA-MB-231 cells. The format is cell-based. The note with it: TGFβ 2 ng/mL, triplicate; for Average p-SMAD2 inhibition @ 0.1 μM (% Inh) / inhibition at 0.1 µM: 0.1 μM compound; for Average p-SMAD2 inhibition @ 0.5 μM (% Inh) / inhibition at 0.5 µM: 0.5 μM compound; for inhibition at 0.1 µM / inhibition at 0.5 µM: Homo sapiens; for inhibition at 0.1 µM: read-out: Average p-SMAD2 inhibition @ 0.1 μM (% Inh); for inhibition at 0.5 µM: read-out: Average p-SMAD2 inhibition @ 0.5 μM (% Inh). Background: A western blot detects proteins with antibodies after separation by electrophoresis.

For assay [2], the target named is ALK1 (ACVRL1) (Homo sapiens (Human), UniProt P37023). Put plainly: In vitro kinase assay, ALK1. The conditions noted are these: read-out: Inhibition of ALK1 IC50. It is filed as biochemical.
Assay [3] deals with ALK5 (TGFBR1) (Homo sapiens (Human), UniProt P36897). Put plainly: In vitro kinase assay, ALK5. The format is biochemical. The note with it: 10 μM ATP; read-out: Inhibition of ALK5 IC50.
Assay [4] deals with ALK6 (BMPR1B) (Homo sapiens (Human), UniProt O00238). Briefly: In vitro kinase assay, ALK6. The format is biochemical.
In assay [5] the target is ALK4 (ACVR1B) (Homo sapiens (Human), UniProt P36896). Put plainly: In vitro kinase assay, ALK4. The note with it: 10 μM ATP; read-out: Inhibition of ALK4 IC50. It is filed as biochemical.
In assay [6] the target is ALK2 (ACVR1) (Homo sapiens (Human), UniProt Q04771). Put plainly: In vitro kinase assay, ALK2. It is filed as biochemical. The conditions noted are these: 10 μM ATP; read-out: Inhibition of ALK2 IC50.
The target in assay [7] is ALK3 (BMPR1A) (Homo sapiens (Human), UniProt P36894). Put plainly: In vitro kinase assay, ALK3. It is filed as biochemical. The conditions noted are these: 10 μM ATP; read-out: Inhibition of ALK3 IC50.

As a reminder, the IC50 is the concentration that gives 50% inhibition. A word on the inhibition: it is how much of the control response was suppressed.

`CC(C)c1cnc(-c2cc(Cl)ccc2F)cc1Nc1ccncc1C(=O)NC[C@H](C)O` (single isomer, unassigned) [2a]: in assay [1], the “Average p-SMAD2 inhibition @ 0.1 μM (% Inh)” value is 26.33 % Inh and the “Average p-SMAD2 inhibition @ 0.5 μM (% Inh)” value was 77.67 % Inh.

On to `CCc1cnc(-c2cc(Cl)ccc2F)cc1Nc1ccncc1C(=O)NC[C@H](C)O` (single isomer, unassigned) [11a], for which, in assay [1], the “Average p-SMAD2 inhibition @ 0.1 μM (% Inh)” value is recorded as 44.67 % Inh and the “Average p-SMAD2 inhibition @ 0.5 μM (% Inh)” value came to 96.00 % Inh.

For `CC(C)c1cnc(-c2cc(Cl)ccc2F)cc1Nc1ncncc1C(=O)NC[C@H](C)O` (single isomer, unassigned) [12a], in assay [1], the “Average p-SMAD2 inhibition @ 0.1 μM (% Inh)” value is listed as 64.33 % Inh and the “Average p-SMAD2 inhibition @ 0.5 μM (% Inh)” value stood at 93.00 % Inh.

Regarding `COc1cnc(-c2cc(Cl)ccc2F)cc1Nc1ccncc1C(=O)NC[C@H](C)O` (single isomer, unassigned) [13a], in assay [1], the “Average p-SMAD2 inhibition @ 0.1 μM (% Inh)” value is 59.00 % Inh and the “Average p-SMAD2 inhibition @ 0.5 μM (% Inh)” value amounted to 93.67 % Inh.

For the molecule `C=C(C)c1cnc(-c2cc(Cl)ccc2F)cc1Nc1n[nH]cc1C(=O)NC[C@H](C)O` (single isomer, unassigned) [20a], the half-maximal inhibitory concentration (IC50) is greater than 100 µM in assay [2], greater than 100 µM in assay [3], greater than 1000 µM in assay [4] and greater than 1000 µM in assay [5].

`C=C(C)c1c(Nc2ccncc2C(=O)NC[C@H](C)O)cc(-c2cc(Cl)ccc2F)nc1N` (single isomer, unassigned) [23a]: in assay [1], the inhibition at 0.1 µM was 46.3% and the inhibition at 0.5 µM came out at 93.7%.

With `C=C(C)c1cnc(-c2cc(Cl)ccc2F)cc1Nc1ccncc1C(=O)N[C@@H](C)CO` [7a, (S)-4-(2-(5-chloro-2-fluorophenyl)-5-(prop-1-en-2-yl)pyridin-4-ylamino)-N-(1-hydroxypropan-2-yl)nicotinamide], in assay [1], the inhibition at 0.1 µM is 74.3% and the inhibition at 0.5 µM was 99.3%.

With `C=C(C)c1cnc(-c2cc(Cl)ccc2F)cc1Nc1ccncc1C(=O)N[C@H](C)CO` [7b, (2R)-4-[[2-(5-chloro-2-fluoro-phenyl)-5-isopropenyl-4-pyridyl]amino]-N-(2-hydroxy-1-methyl-ethyl)pyridine-3-carboxamide], in assay [1], the inhibition at 0.1 µM came to 36.3% and the inhibition at 0.5 µM worked out at 78.7%.

Regarding `C=C(C)c1cnc(-c2cc(Cl)ccc2F)cc1Nc1ccncc1C(=O)NC(C)(C)CO` [compound 8, 4-[[2-(5-chloro-2-fluoro-phenyl)-5-isopropenyl-4-pyridyl]amino]-N-(2-hydroxy-1,1-dimethyl-ethyl)pyridine-3-carboxamide], in assay [1], the inhibition at 0.1 µM came to 58.7% and the inhibition at 0.5 µM turned out to be 94.3%.

For `CC(=O)NCCNC(=O)c1cnccc1Nc1cc(-c2cc(Cl)ccc2F)ncc1C(C)C` [compound 14, N-(2-acetamidoethyl)-4-[[2-(5-chloro-2-fluoro-phenyl)-5-isopropyl-4-pyridyl]amino]pyridine-3-carboxamide], in assay [1], the inhibition at 0.1 µM stood at 45% and the inhibition at 0.5 µM worked out at 92.3%.

For the molecule `CC(C)c1cnc(-c2cc(Cl)ccc2F)cc1Nc1ccncc1C(=O)NCC(N)=O` [compound 15, N-(2-amino-2-oxo-ethyl)-4-[[2-(5-chloro-2-fluoro-phenyl)-5-isopropyl-4-pyridyl]amino]pyridine-3-carboxamide], in assay [1], the inhibition at 0.1 µM worked out at 80.3% and the inhibition at 0.5 µM worked out at 97.3%.

In the case of `CC(C)c1cnc(-c2cc(Cl)ccc2F)cc1Nc1ccncc1C(=O)NCCNS(C)(=O)=O` [compound 18, 4-[[2-(5-chloro-2-fluoro-phenyl)-5-isopropyl-4-pyridyl]amino]-N-[2-(methanesulfonamido)ethyl]pyridine-3-carboxamide], in assay [1], the inhibition at 0.1 µM was determined as 31.3% and the inhibition at 0.5 µM worked out at 82.7%.

With `C=C(C)c1cnc(-c2cc(Cl)ccc2F)cc1Nc1ccncc1C(=O)NCCO` [compound 26, 4-[[2-(5-chloro-2-fluoro-phenyl)-5-isopropenyl-4-pyridyl]amino]-N-(2-hydroxyethyl)pyridine-3-carboxamide], in assay [1], the inhibition at 0.1 µM came to 64% and the inhibition at 0.5 µM amounted to 89%.

As for `C=C(C)c1cnc(-c2cc(Cl)ccc2F)cc1Nc1ccncc1C(=O)NC1CC1` [compound 27, 4-[[2-(5-chloro-2-fluoro-phenyl)-5-isopropenyl-4-pyridyl]amino]-N-cyclopropyl-pyridine-3-carboxamide], the concentration for half-maximal inhibition (IC50) is greater than 100 µM in assay [6]; greater than 100 µM in assay [4] (10 μM ATP, read-out: Inhibition of ALK6 IC50); greater than 100 µM in assay [7].

In the case of `CC(C)c1cnc(-c2ccccc2)cc1Nc1ccncc1C(=O)NC[C@H](C)O` [compound 28, N-(2-hydroxypropyl)-4-[(5-isopropyl-2-phenyl-4-pyridyl)amino]pyridine-3-carboxamide], in assay [1], the inhibition at 0.1 µM was found to be 2.33% and the inhibition at 0.5 µM stood at 51.3%.

For the molecule `CC(C)c1cnc(-c2ncccc2F)cc1Nc1ccnc2[nH]ccc12` [compound 29, 2-(3-fluoropyridin-2-yl)-5-(propan-2-yl)-N-{1H-pyrrolo[2,3-b]pyridin-4-yl}pyridin-4-amine], in assay [1], the inhibition at 0.1 µM was determined as 58% and the inhibition at 0.5 µM came to 67.7%.

In the case of `CC(C)c1cnc(-c2ncccc2F)cc1Nc1ncnc2[nH]ccc12` [compound 30, 2-(3-fluoropyridin-2-yl)-5-(propan-2-yl)-N-{7H-pyrrolo[2,3-d]pyrimidin-4-yl}pyridin-4-amine], in assay [1], the inhibition at 0.1 µM turned out to be 59.7% and the inhibition at 0.5 µM was found to be 70.3%.

`Fc1ccc(Cl)cc1-c1cc(Nc2ccnc3[nH]ccc23)c(C2CC2)cn1` [compound 32, 2-(5-chloro-2-fluorophenyl)-5-cyclopropyl-N-{1H-pyrrolo[2,3-b]pyridin-4-yl}pyridin-4-amine] yielded an IC50 in assay [4] greater than 10 µM.
